# Laboratory results published in US20110275606A1, “SUBSTITUTED PORPHYRINS” (DUKE UNIVERSITY, priority 2009, published 2011).
# Assay: Thin layer chromatography Rf (lipophilicity)
# Type: physicochemical
# Conditions: thin-layer silica, saturated KNO3(aq):H2O:MeCN (1:1:8); measure of lipophilicity
# Protocol: Thin layer chromatography (TLC) was carried out in polyester-backed silica-gel sheets without fluorescent indicator (Sigma-Aldrich Z122777-25EA) cut into ˜2×20 cm strips and eluted with a saturated KNO3(aq):H2O:MeCN (1:1:8, v/v/v) mixture in a capped 1 L chamber. Typically, 1 microliter of ˜1 mM samples were applied at ˜1 cm of the strip border and the solvent front was allowed to run ˜12 cm.
# Table indicating the redox properties (E1/2 of the Mn^IIIP/Mn^IIP redox couple) and antioxidant (log kcat for the dismutation of superoxide, O2′^−) properties of ortho and meta isomers of Mn N-substituted pyridylporphyrins. The E1/2 and log kcat were determined as described in Reboucas et al., Dalton Trans., 2008, 1233-42. Rf is the ratio of the drug path over solvent path on thin-layer silica with water/acetonitrile/KNO3 saturated water and is a measure of […]. […] In addition, as the length of the pyridyl substituent increases the SOD activity of the ortho compounds drops while there is no change in the SOD activity of the meta compounds.
# Rf is a measure of lipophilicity and is linearly related to log P where P is the partition coefficient between water and n-octanol. (Kos et al., Free Radic. Biol. Med., 47, 72-78, 2009, which is incorporated by reference herein).
substance,measurement,value
MnTnPrOH-3-PyP^5+,Rf,0.05
